Measurements as given in US6348445B1, “Biologically active peptides with reduced toxicity in animals and a method for preparing same” (priority 1992, dated 2002).

What was measured:
Format in all cases: cell-based
[1] = tested on: P. aeruginosa strain ATCC 27853
Excerpt: Table I, which follows, indicates the Minimal Inhibitory Concentration (MIC) in […] of various peptides against S.aureus strain ATCC 25923(S), P. aeruginosa strain ATCC 27853(P), E. coli ATCC strain 25922(E), and C. 4albicans (CA). […] The peptides are unsubstituted at the N-terminal; substituted with an acetyl group at the N-terminal, as indicated by Ac-; substituted with an octanoyl group at the N-terminal, as indicated by Oct-; substituted with spinogosine, as indicated by Sph-; substituted with a succinyl group, as indicated by Suc-; substituted with a hexanoyl group, as indicated by Hex-; substituted with a heptanoyl group, as indicated by Hep-; substituted with a valeryl group, as indicated by Val-; substituted with a myristryl group, as indicated by Myr-; or substituted with an ibuprofyl group, as indicated by Ibu-; […]
The stock peptide solution was diluted in serial dilutions (1:2) down the wells of a microtiter plate so that the final concentrations of peptides in the wells were 0.25, 0.50, 1, 2, 4, 8, 16, 32, 64, 128 and 256 μg/ml. […] The plates were incubated for 16-20 hours at 37° C., and the minimal inhibitory concentration (MIC) for each peptide was determined. […]
The in vitro anti-microbial activities of the methane sulfonate derivatives were determined according to the methods described in Examples 1 and 2. […]

[2] = tested on: A-549 human lung carcinoma cells; conditions: 24 h
Experimental: (§1) Human lung carcinoma cells, A-549 (ATCC), and human breast carcinoma cells, MDA-435 (from Sandoz), were grown in Ham's F12K medium (GIBCO-BRL) supplemented with […] fetal bovine serum. Human chronic myelogenous leukemia cells, K-562 (ATCC), were maintained in RPMI 1640 medium (GIBCO-BRL) supplemented with 10% fetal bovine serum. Human melanoma cell line, WM 1617 (from the Wistar Institute), was maintained in 2% Tumor media.
(§2) Cytotoxicity assays were performed on the cell lines described above using CytoLite (Packard Instrument Company) following the manufacture's instruction. Briefly, 2×10^4cells/well were seeded into black, 96-well ViewPlates (Packard Instrument Company) in 100 μl/well growth medium. Ser. dilutions of Magainin peptides were then added into the cells and the plates incubated for 24 hours in a humidified 5% CO2 atmosphere at 37° C. Following incubation, 25 μl/well of CytoLite activator solution was added followed by 125 μl/well of amplifier solution. Luminescence was measured on TopCount Microplate Scintillation and Luminescence counter (Packard Instrument Company) using a 1 second count time in SPC (single photon counting) mode at 25 ° C. All assays were performed in triplicate. The peptides tested in this assay were MSI-78(SEQ ID NO: 154 —NH2), MSI-1858(SEQ ID NO: 154 —NH2 Methane Sulfonate), MSI-344(SEQ ID NO: 154 —OH) and MSI-1857(SEQ ID NO: 154 —OH Methane Sulfonate). The results of these assays are shown in FIGS. 2-9 with the corresponding IC50 values in Table VIII. In all cases the activity of the methane sulfonated peptide was as good or better than the parent peptide as indicated by both the survival curves and the IC50 values.

[3] = tested on: K-562 human chronic myelogenous leukemia cells; conditions: 24 h
Experimental: as §1, §2

[4] = tested on: MDA-435 human breast carcinoma cells; conditions: 24 h
Experimental: as §1, §2

[5] = tested on: WM 1617 human melanoma cells; conditions: 24 h
Experimental: as §1, §2

Structure (SMILES): CC[C@H](C)[C@H](NC(=O)CNCS(=O)(=O)O)C(=O)NCC(=O)N[C@@H](CCCCNCS(=O)(=O)O)C(=O)N[C@@H](Cc1ccccc1)C(=O)N[C@@H](CC(C)C)C(=O)N[C@@H](CCCCNCS(=O)(=O)O)C(=O)N[C@@H](CCCCNCS(=O)(=O)O)C(=O)N[C@@H](C)C(=O)N[C@@H](CCCCNCS(=O)(=O)O)C(=O)N[C@@H](CCCCNCS(=O)(=O)O)C(=O)N[C@@H](Cc1ccccc1)C(=O)NCC(=O)N[C@@H](CCCCNCS(=O)(=O)O)C(=O)N[C@@H](C)C(=O)N[C@@H](Cc1ccccc1)C(=O)N[C@H](C(=O)N[C@@H](CCCCNCS(=O)(=O)O)C(=O)N[C@H](C(=O)N[C@@H](CC(C)C)C(=O)N[C@@H](CCCCNCS(=O)(=O)O)C(=O)N[C@@H](CCCCNCS(=O)(=O)O)C(=O)O)[C@@H](C)CC)C(C)C [MSI-1857]
- MIC P. aeruginosa ATCC 27853 [1]: 256 µg/mL (≈ 74.9 µM)
- IC50 [2]: 6 µM
- IC50 [3]: 7.5 µM
- IC50 [4]: 4 µM
- IC50 [5]: 3 µM

≈ marks a conversion by molar mass, not a printed value.
